Assay results reported in ChEMBL document CHEMBL5046218, “Novel Dual-Target μ-Opioid Receptor and Dopamine D3 Receptor Ligands as Potential Nonaddictive Pharmacotherapeutics for Pain Management” (J Med Chem, 2021).

Protein sequences, listed by entry. Tags and fused reporters are not part of them.
UniProt P35372, whole entry, looked up: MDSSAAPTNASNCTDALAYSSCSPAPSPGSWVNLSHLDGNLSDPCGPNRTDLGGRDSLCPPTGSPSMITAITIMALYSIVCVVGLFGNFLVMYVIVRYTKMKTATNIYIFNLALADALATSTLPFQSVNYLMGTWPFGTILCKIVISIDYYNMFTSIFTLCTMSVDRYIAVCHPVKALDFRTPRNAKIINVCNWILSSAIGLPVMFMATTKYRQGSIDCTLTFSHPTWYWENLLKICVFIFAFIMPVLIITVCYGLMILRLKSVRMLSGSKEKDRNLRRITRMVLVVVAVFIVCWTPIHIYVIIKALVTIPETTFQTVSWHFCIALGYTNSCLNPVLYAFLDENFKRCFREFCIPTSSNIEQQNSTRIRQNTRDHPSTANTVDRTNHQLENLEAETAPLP

Target: Mu-type opioid receptor (Homo sapiens, UniProt P35372)
Details: hek293

SMILES: CCC(=O)C(CCN(C)C)(c1ccccc1)c1ccccc1 [NORMETHADONE]
- Ki: 35.9 nM
